These results are taken from US9415103B2, “Combination therapy to prevent DCIS formation and progression to breast cancer” (Yeda Research and Development Co. Ltd., priority 2011, dated 2016).

The test system of test [1] is c-Myc and Cyclin D1 in MCF10A-HER2 spheroids. Kind of test: Immunoblotting of c-Myc and Cyclin D1 in spheroids grown in Matrigel. In kind it is cell-based, human. As to conditions: spheroids grown 4 days in Matrigel, then Trastuzumab (10 μg/ml) and/or GSI (1 μM) for two days; FIG. 4B. The protocol:
FIGS. 4A-G illustrate that Notch3 promotes survival of HER2-overexpressing mammary cells. (4A) The relative expression levels of transcripts corresponding to c-Myc and Cyclin D1 (CCND1) were determined by applying quantitative real-time PCR to RNA samples from MCF10A and MCF10A-HER2 spheroids. (4B) MCF10A and MCF10A-HER2 cells were grown in Matrigel™ for 4 days and then the resulting spheroids were incubated in the presence of Trastuzumab (10 μg/ml) and/or a gamma-secretase inhibitor (GSI, 1 μM). Two days later, cells were extracted and subjected to immunoblotting, as indicated. (4C) Monolayers of MCF10A-HER2 cells stably transduced with control or Notch3 shRNAs were lysed and immunoblotted for c-Myc and Cyclin D1. […] The fraction of lumen-filled spheroids on day 8 was quantified by counting 100 spheroids in each treatment group. […] The fractions of filled spheroids were determined as in FIG. 4F.
Morphogenesis assays: Cells were gently trypsinized, washed and re-suspended in assay medium (DME/F12 supplemented with 2% horse serum, 10 μg/ml insulin, 1 ng/ml cholera toxin, 100 μg/ml hydrocortisone, and antibiotics) to a concentration of 10^5 cells per 4.0 ml. […] Each morphometric quantification was performed in triplicates and repeated thrice. […]

The test system of test [2] is MCF10A-HER2 spheroids. Kind of test: Morphogenesis assay in Matrigel: luminal filling and cleaved Caspase-3 staining by confocal microscopy. In kind it is cell-based, human. As to conditions: spheroids grown 4 days, then Trastuzumab and/or GSI for up to 4 additional days; FIG. 4F. Here is the method:
FIGS. 3A-D illustrate that enhanced survival and proliferation of HER2-overexpressing cells are enabled by Notch3. (3A) Extracts of monolayers of MCF10A cells and MCF10A-HER2 cells stably expressing control shRNA or shRNA targeting Notch3 were immunoblotted with the indicated antibodies. (3B) Proliferation of monolayer MCF10A and MCF10A-HER2 cells stably expressing the indicated shRNAs was determined using the MTT assay. Averages and standard deviation values (bars) of triplicates are presented. […] The number of spheroids per well was determined in triplicates and the average and standard deviations (bars) are presented (lower left panel). […] The bar graph presents the average fractions (±S.D., bars) of lumen-filled spheroids, as determined by analyzing 100 spheroids of each group.
FIGS. 4A-G illustrate that Notch3 promotes survival of HER2-overexpressing mammary cells. (4A) The relative expression levels of transcripts corresponding to c-Myc and Cyclin D1 (CCND1) were determined by applying quantitative real-time PCR to RNA samples from MCF10A and MCF10A-HER2 spheroids. […] The fraction of lumen-filled spheroids on day 8 was quantified by counting 100 spheroids in each treatment group. […] The fractions of filled spheroids were determined as in FIG. 4F. […]

For the substance Trastuzumab, the “c-Myc and Cyclin D1 protein levels” value in test [1] was “reduced”. In addition, the “apoptosis of luminal cells (cleaved Caspase-3)” value in test [2] is “enhanced”.
